Source: PMC12134935, “Scientific hypothesis generation by large language models: laboratory validation in breast cancer treatment” (Journal of the Royal Society Interface, 2025)

Tested on: MCF7
Assay: Single drug treatments, viability/toxicity
Format: cell-based
Details: first round, doses up to 25 µM

SMILES: OCCN(CCO)c1nc(N2CCCCC2)c2nc(N(CCO)CCO)nc(N3CCCCC3)c2n1 [dipyridamole]
- toxicity towards MCF7: showed toxicity towards MCF7
